Test results from ChEMBL document CHEMBL1144924, “Calculation of the binding affinity of beta-secretase inhibitors using the linear interaction energy method” (J Med Chem, 2003).

Amino acid sequences for entries named in this document (tags omitted). A change or cut given only in a name is not applied to a line headed by its entry.
UniProt P56817: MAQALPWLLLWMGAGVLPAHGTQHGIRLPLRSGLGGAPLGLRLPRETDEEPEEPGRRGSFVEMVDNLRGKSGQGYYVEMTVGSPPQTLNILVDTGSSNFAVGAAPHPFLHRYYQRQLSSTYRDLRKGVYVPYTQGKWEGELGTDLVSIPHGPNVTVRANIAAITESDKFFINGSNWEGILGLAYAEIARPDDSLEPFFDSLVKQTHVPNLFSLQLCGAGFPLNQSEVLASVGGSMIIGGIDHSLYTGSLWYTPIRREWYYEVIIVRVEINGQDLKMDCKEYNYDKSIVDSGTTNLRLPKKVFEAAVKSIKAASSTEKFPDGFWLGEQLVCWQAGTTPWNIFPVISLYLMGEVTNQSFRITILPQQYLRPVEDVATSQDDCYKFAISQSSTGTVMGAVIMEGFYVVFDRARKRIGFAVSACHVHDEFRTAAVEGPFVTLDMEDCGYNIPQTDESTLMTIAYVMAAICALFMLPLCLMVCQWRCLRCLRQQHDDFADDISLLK

Molecular target: Beta-secretase 1 (Homo sapiens, UniProt P56817)
Experiment: Binding affinity for human brain memapsin 2 beta-Secretase (BACE)

Ki	Structure (SMILES)
8 nM	CC(C)C[C@H](NC(=O)C(CCS(C)(=O)=O)NC(=O)[C@@H](NC(=O)OC(C)(C)C)C(C)C)C(O)CC(C)C(=O)NC(C(=O)NCc1ccccc1)C(C)C (stereo partly drawn)
0.32 nM	CC(C)C[C@H](NC(=O)[C@@H](N)CCC(=O)O)C(=O)N[C@@H](CC(=O)O)C(=O)N[C@@H](CC(C)C)[C@@H](O)C[C@@H](C)C(=O)N[C@H](C(=O)N[C@@H](CCC(=O)O)C(=O)NC(Cc1ccccc1)C(=O)O)C(C)C (stereo partly drawn)
10500 nM	CSCCC(NC(=O)[C@@H](NC(=O)OC(C)(C)C)C(C)C)C(=O)N[C@@H](CC(C)C)C(O)CC(CC(C)C)C(=O)NC(C(=O)NCc1ccccc1)C(C)C (stereo partly drawn)
